Inconclusive results and toxic doses are left out.
Test system: AKR/Lw mice, AKR lymphoma ip, median survival T/C
Assay: NCI In Vivo Anticancer Drug Screen. Data for tumor model Lymphoma AKR (Transplanted) (intraperitoneal) in AKR/Lw mice
Conditions: endpoint: median survival time, vehicle: saline, higher = longer survival
Method: The antitumor activity of compounds was measured in mice bearing transplantable tumors. Survival or tumor size were measured and the results are expressed as the measurement made in the treated group (T) divided by the measurement made in the vehicle treated control group (C). The tumor model used in this assay is Lymphoma AKR (Transplanted) (intraperitoneal) in AKR/Lw mice

CN(Cc1cnc2nc(N)nc(N)c2n1)c1ccc(C(=O)N[C@@H](CCC(=O)O)C(=O)O)cc1
T/C (dose: 0.75 mg/kg/injection, schedule: Q01DX009 (ip)): 121 % of control
T/C (dose: 12.0 mg/kg/injection, schedule: Q04DX004 (ip)): 153 % of control
T/C (dose: 20.0 mg/kg/injection, schedule: Q01DX001 (ip)): 121 % of control

— PubChem BioAssay AID190 (DTP/NCI, 2004)
